Reference: patent US7192924B2, “Corticotropin releasing factor 2 receptor agonists” (priority 2002, dated 2007)

Legend:
[1] = biological target: T1, CRF2R (Homo sapiens, UniProt Q13324); assay: CRF2R agonist activity (EC50, Emax), called comparative CRF binding; assay type: cell-based
T1 sequence (Q13324 1-411): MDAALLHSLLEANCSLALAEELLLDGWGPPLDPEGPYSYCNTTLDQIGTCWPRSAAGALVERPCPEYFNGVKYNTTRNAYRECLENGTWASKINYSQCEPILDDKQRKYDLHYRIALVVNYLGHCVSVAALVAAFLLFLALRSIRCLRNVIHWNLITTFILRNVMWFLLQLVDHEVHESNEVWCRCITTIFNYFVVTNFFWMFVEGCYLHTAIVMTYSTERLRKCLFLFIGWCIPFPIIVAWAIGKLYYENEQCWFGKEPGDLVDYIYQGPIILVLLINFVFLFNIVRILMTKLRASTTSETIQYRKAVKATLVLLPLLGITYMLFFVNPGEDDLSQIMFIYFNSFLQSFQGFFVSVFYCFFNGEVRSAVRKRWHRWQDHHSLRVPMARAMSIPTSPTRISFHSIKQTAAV
How it was run: (§1)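 Agonism is judged from increased cAMP, measured either directly in lysates or through reporter genes under a cAMP responsive element. Cells or membranes express only the receptor of interest, and vehicle-treated cells serve as control.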

[2] = biological target: T2, CRF1R (Homo sapiens, UniProt P34998); assay: CRF1R agonist activity (EC50, Emax), called comparative CRF binding; assay type: cell-based
T2 sequence (P34998 24-415): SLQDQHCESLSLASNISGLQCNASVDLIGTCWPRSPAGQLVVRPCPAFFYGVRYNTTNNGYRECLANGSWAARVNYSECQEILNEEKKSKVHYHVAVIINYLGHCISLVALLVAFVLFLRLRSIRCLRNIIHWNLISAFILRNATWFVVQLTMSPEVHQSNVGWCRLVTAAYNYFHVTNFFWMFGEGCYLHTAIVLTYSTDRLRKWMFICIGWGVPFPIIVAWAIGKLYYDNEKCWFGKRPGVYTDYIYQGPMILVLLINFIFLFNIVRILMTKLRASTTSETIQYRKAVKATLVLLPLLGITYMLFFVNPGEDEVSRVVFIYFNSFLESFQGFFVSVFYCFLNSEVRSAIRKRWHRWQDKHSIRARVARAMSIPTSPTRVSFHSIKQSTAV
How it was run: as §1

Compound | EC50 [1] | EC50 [2] | EC50 ([1]; read-out: CRF2R EC50) | EC50 ([2]; read-out: CRF1R EC50)
CC[C@H](C)[C@H](NC(=O)[C@H](CCCNC(=N)N)NC(=O)[C@H](C)NC(=O)[C@H](CC(C)C)NC(=O)[C@H](CC(C)C)NC(=O)[C@H](CCCNC(=N)N)NC(=O)[C@H](C)NC(=O)[C@H](CC(N)=O)NC(=O)[C@H](CC(N)=O)NC(=O)[C@H](C)NC(=O)[C@H](C)NC(=O)[C@H](CCC(N)=O)NC(=O)[C@H](CCC(N)=O)NC(=O)[C@H](CCCCN)NC(=O)[C@H](CCC(=O)O)NC(=O)[C@H](CCCCN)NC(=O)[C@H](CCC(=O)O)NC(=O)[C@H](CCC(N)=O)NC(=O)[C@H](CCCCN)NC(=O)[C@H](CCC(=O)O)NC(=O)[C@@H](NC(=O)[C@H](CCC(=O)O)NC(=O)[C@@H](NC(=O)[C@@H](NC(=O)[C@H](CCCCN)NC(=O)[C@H](CCCNC(=N)N)NC(=O)[C@H](CC(C)C)NC(=O)[C@H](CC(C)C)NC(=O)[C@H](CCC(N)=O)NC(=O)[C@H](Cc1ccccc1)NC(=O)[C@@H]1CCCN1C(=O)[C@H](CC(C)C)NC(=O)[C@H](CC(=O)O)NC(=O)[C@@H](NC(=O)[C@H](CO)NC(=O)[C@@H](NC(=O)[C@@H]1CCCN1C(=O)[C@@H]1CCCN1C(=O)CNC(=O)[C@@H]1CCC(=O)N1)[C@@H](C)CC)[C@@H](C)CC)C(C)C)[C@@H](C)CC)[C@@H](C)CC)C(N)=O [compound 279] | 13.1 nM | ≥ 1000 nM | – | –
CC[C@H](C)[C@H](NC(=O)[C@H](CCCNC(=N)N)NC(=O)[C@H](C)NC(=O)[C@H](CC(N)=O)NC(=O)[C@@H](NC(=O)[C@@H](NC(=O)[C@H](C)NC(=O)[C@H](CCC(N)=O)NC(=O)[C@H](CCC(N)=O)NC(=O)[C@H](CCCCN)NC(=O)[C@H](CCC(=O)O)NC(=O)[C@H](CCCCN)NC(=O)[C@H](CCC(=O)O)NC(=O)[C@H](CCC(N)=O)NC(=O)[C@H](CCCCN)NC(=O)[C@H](CCC(=O)O)NC(=O)[C@@H](NC(=O)[C@H](CCC(=O)O)NC(=O)[C@@H](NC(=O)[C@H](CCSC)NC(=O)[C@H](CCCCN)NC(=O)[C@H](CCCNC(=N)N)NC(=O)[C@H](CC(C)C)NC(=O)[C@H](CC(C)C)NC(=O)[C@H](CCC(=O)O)NC(=O)[C@H](CC(C)C)NC(=O)[C@@H]1CCCN1C(=O)[C@H](CC(C)C)NC(=O)[C@H](CC(=O)O)NC(=O)[C@@H](NC(=O)[C@H](CO)NC(=O)[C@@H](NC(=O)[C@@H]1CCCN1C(=O)[C@@H]1CCCN1C(=O)CNC(=O)[C@@H]1CCC(=O)N1)[C@@H](C)CC)[C@@H](C)CC)[C@@H](C)CC)[C@@H](C)CC)[C@@H](C)O)[C@@H](C)O)C(=O)N[C@@H](CC(C)C)C(=O)N[C@@H](C)C(=O)N[C@@H](CCCNC(=N)N)C(=O)N[C@H](C(N)=O)C(C)C [compound 143] | – | – | 11.1 nM | 232 nM
CC[C@H](C)[C@H](NC(=O)[C@@H](NC(=O)[C@H](CC(=O)O)NC(=O)[C@H](CC(C)C)NC(=O)[C@H](CC(C)C)NC(=O)[C@H](CC(C)C)NC(=O)[C@H](CCCNC(=N)N)NC(=O)[C@H](CC(N)=O)NC(=O)[C@H](CC(N)=O)NC(=O)[C@H](C)NC(=O)[C@H](C)NC(=O)[C@H](CCC(N)=O)NC(=O)[C@H](CCC(N)=O)NC(=O)[C@H](CCCCN)NC(=O)[C@H](CCC(=O)O)NC(=O)[C@H](CCCCN)NC(=O)[C@H](CCC(=O)O)NC(=O)[C@H](CCC(N)=O)NC(=O)[C@H](CCCCN)NC(=O)[C@H](CCC(=O)O)NC(=O)[C@@H](NC(=O)[C@H](CCC(=O)O)NC(=O)[C@@H](NC(=O)[C@H](CCSC)NC(=O)[C@H](CCCCN)NC(=O)[C@H](CCCNC(=N)N)NC(=O)[C@H](CC(C)C)NC(=O)[C@H](CC(C)C)NC(=O)[C@H](CC(C)C)NC(=O)[C@@H](NC(=O)[C@@H]1CCCN1C(=O)[C@H](CC(C)C)NC(=O)[C@H](CC(=O)O)NC(=O)[C@@H](NC(=O)[C@H](CO)NC(=O)[C@@H](NC(=O)[C@@H]1CCCN1C(=O)[C@@H]1CCCN1C(=O)CNC(=O)[C@@H]1CCC(=O)N1)[C@@H](C)CC)[C@@H](C)CC)[C@@H](C)O)[C@@H](C)CC)[C@@H](C)CC)[C@@H](C)O)C(N)=O [compound 51] | 20.7 nM | > 1000 nM | – | –
CC[C@H](C)[C@H](NC(=O)[C@H](CCCNC(=N)N)NC(=O)[C@H](C)NC(=O)[C@H](CC(N)=O)NC(=O)[C@@H](NC(=O)[C@@H](NC(=O)[C@H](C)NC(=O)[C@H](CCC(N)=O)NC(=O)[C@H](CCC(N)=O)NC(=O)[C@H](CCCCN)NC(=O)[C@H](CCC(=O)O)NC(=O)[C@H](CCCCN)NC(=O)[C@H](CCC(=O)O)NC(=O)[C@H](CCC(N)=O)NC(=O)[C@H](CCCCN)NC(=O)[C@H](CCC(=O)O)NC(=O)[C@@H](NC(=O)[C@H](CCC(=O)O)NC(=O)[C@@H](NC(=O)[C@@H](NC(=O)[C@H](CCCCN)NC(=O)[C@H](CCCNC(=N)N)NC(=O)[C@H](CC(C)C)NC(=O)[C@H](CC(C)C)NC(=O)[C@H](CCC(N)=O)NC(=O)[C@H](CC(C)C)NC(=O)[C@@H]1CCCN1C(=O)[C@H](CC(C)C)NC(=O)[C@H](CC(=O)O)NC(=O)[C@@H](NC(=O)[C@H](CO)NC(=O)[C@@H](NC(=O)[C@@H]1CCCN1C(=O)[C@@H]1CCCN1C(=O)CNC(=O)[C@@H]1CCC(=O)N1)[C@@H](C)CC)[C@@H](C)CC)C(C)C)[C@@H](C)CC)[C@@H](C)CC)[C@@H](C)O)[C@@H](C)O)C(=O)N[C@@H](CC(C)C)C(=O)N[C@@H](C)C(=O)N[C@@H](CCCNC(=N)N)C(=O)N[C@H](C(N)=O)C(C)C [compound 320] | 19.1 nM | 718 nM | – | –
CC[C@H](C)[C@H](NC(=O)[C@@H](NC(=O)[C@H](C)NC(=O)[C@H](CC(C)C)NC(=O)[C@H](CC(C)C)NC(=O)[C@H](CC(C)C)NC(=O)[C@H](C)NC(=O)[C@H](CC(N)=O)NC(=O)[C@H](CC(N)=O)NC(=O)[C@H](C)NC(=O)[C@H](C)NC(=O)[C@H](CCC(N)=O)NC(=O)[C@H](CCC(N)=O)NC(=O)[C@H](CCCCN)NC(=O)[C@H](CCC(=O)O)NC(=O)[C@H](CCCCN)NC(=O)[C@H](CCC(=O)O)NC(=O)[C@H](CCC(N)=O)NC(=O)[C@H](CCCCN)NC(=O)[C@H](CCC(=O)O)NC(=O)[C@@H](NC(=O)[C@H](CCC(=O)O)NC(=O)[C@@H](NC(=O)[C@H](CCSC)NC(=O)[C@H](CCCCN)NC(=O)[C@H](CCCNC(=N)N)NC(=O)[C@H](CC(C)C)NC(=O)[C@H](CC(C)C)NC(=O)[C@H](Cc1ccc(O)cc1)NC(=O)[C@H](Cc1ccc(O)cc1)NC(=O)[C@@H]1CCCN1C(=O)[C@H](CC(C)C)NC(=O)[C@H](CC(=O)O)NC(=O)[C@@H](NC(=O)[C@H](CO)NC(=O)[C@@H](NC(=O)[C@@H]1CCCN1C(=O)[C@@H]1CCCN1C(=O)CNC(=O)[C@@H]1CCC(=O)N1)[C@@H](C)CC)[C@@H](C)CC)[C@@H](C)CC)[C@@H](C)CC)[C@@H](C)O)C(N)=O [compound 225] | 4.8 nM | 219 nM | – | –
CC[C@H](C)[C@H](NC(=O)[C@H](CCC(=O)O)NC(=O)[C@@H](NC(=O)[C@H](CCSC)NC(=O)[C@H](CCCCN)NC(=O)[C@H](CCCNC(=N)N)NC(=O)[C@H](CC(C)C)NC(=O)[C@H](CC(C)C)NC(=O)[C@H](CCC(N)=O)NC(=O)[C@H](Cc1ccccc1)NC(=O)[C@@H]1CCCN1C(=O)[C@H](CC(C)C)NC(=O)[C@H](CC(=O)O)NC(=O)[C@@H](NC(=O)[C@H](CO)NC(=O)[C@@H](NC(=O)[C@@H]1CCCN1C(=O)[C@@H]1CCCN1C(=O)CNC(=O)[C@@H]1CCC(=O)N1)[C@@H](C)CC)[C@@H](C)CC)[C@@H](C)CC)C(=O)N[C@@H](CCC(=O)O)C(=O)N[C@@H](CCCCN)C(=O)N[C@@H](CCC(N)=O)C(=O)N[C@@H](CCC(=O)O)C(=O)N[C@@H](CCCCN)C(=O)N[C@@H](CCC(=O)O)C(=O)N[C@@H](CCCCN)C(=O)N[C@@H](CCC(N)=O)C(=O)N[C@@H](CCC(N)=O)C(=O)N[C@@H](C)C(=O)N[C@H](C(=O)N[C@H](C(=O)N[C@@H](CC(N)=O)C(=O)N[C@@H](CCCNC(=N)N)C(=O)N[C@@H](CC(C)C)C(=O)N[C@@H](CC(C)C)C(=O)N[C@@H](CC(C)C)C(=O)N[C@@H](CC(=O)O)C(=O)N[C@@H](CCCNC(=N)N)C(=O)N[C@H](C(N)=O)C(C)C)[C@@H](C)O)[C@@H](C)O [compound 18] | 5.29 nM | 106 nM | – | –
CC[C@H](C)[C@H](NC(=O)[C@@H](NC(=O)[C@H](CC(=O)O)NC(=O)[C@H](CC(C)C)NC(=O)[C@H](CC(C)C)NC(=O)[C@H](CC(C)C)NC(=O)[C@H](CCCNC(=N)N)NC(=O)[C@H](CC(N)=O)NC(=O)[C@H](CC(N)=O)NC(=O)[C@H](C)NC(=O)[C@H](C)NC(=O)[C@H](CCC(N)=O)NC(=O)[C@H](CCC(N)=O)NC(=O)[C@H](CCCCN)NC(=O)[C@H](CCC(=O)O)NC(=O)[C@H](CCCCN)NC(=O)[C@H](CCC(=O)O)NC(=O)[C@H](CCC(N)=O)NC(=O)[C@H](CCCCN)NC(=O)[C@H](CCC(=O)O)NC(=O)[C@@H](NC(=O)[C@H](CCC(=O)O)NC(=O)[C@@H](NC(=O)[C@H](CCSC)NC(=O)[C@H](CCCCN)NC(=O)[C@H](CCCNC(=N)N)NC(=O)[C@H](CC(C)C)NC(=O)[C@H](CC(C)C)NC(=O)[C@H](CCC(N)=O)NC(=O)[C@H](Cc1ccc(O)cc1)NC(=O)[C@@H]1CCCN1C(=O)[C@H](CC(C)C)NC(=O)[C@H](CC(=O)O)NC(=O)[C@@H](NC(=O)[C@H](CO)NC(=O)[C@@H](NC(=O)[C@@H]1CCCN1C(=O)[C@@H]1CCCN1C(=O)CNC(=O)[C@@H]1CCC(=O)N1)[C@@H](C)CC)[C@@H](C)CC)[C@@H](C)CC)[C@@H](C)CC)[C@@H](C)O)C(N)=O [compound 202] | 8.7 nM | 404 nM | – | –

Where two headings read alike, the source gives them in different places.
